Measured values from PubChem BioAssay (NCATS).
Values joined by “and” are separate entries in the source; they are usually repeats but may differ in a detail not shown here. Equal values may be shown once. Only a part is listed here, and it is no random draw. Results filed as inconclusive are left out. Active and inactive are the calls of the source. Unless noted, calls follow the shape of the dose curve; as a rule, active = well fitted curve in the direction sought with a large enough effect; inconclusive = small, poorly fitted or top-dose-only effect, or another doubt; inactive = no such curve, though single readings can be large; an effect the other way counts as inactive or inconclusive.

Sequences of proteins named here, by UniProt entry; tags and fusion partners are left off. A change or cut given only in a name is not applied to a line headed by its entry.
UniProt O89049, whole entry, looked up: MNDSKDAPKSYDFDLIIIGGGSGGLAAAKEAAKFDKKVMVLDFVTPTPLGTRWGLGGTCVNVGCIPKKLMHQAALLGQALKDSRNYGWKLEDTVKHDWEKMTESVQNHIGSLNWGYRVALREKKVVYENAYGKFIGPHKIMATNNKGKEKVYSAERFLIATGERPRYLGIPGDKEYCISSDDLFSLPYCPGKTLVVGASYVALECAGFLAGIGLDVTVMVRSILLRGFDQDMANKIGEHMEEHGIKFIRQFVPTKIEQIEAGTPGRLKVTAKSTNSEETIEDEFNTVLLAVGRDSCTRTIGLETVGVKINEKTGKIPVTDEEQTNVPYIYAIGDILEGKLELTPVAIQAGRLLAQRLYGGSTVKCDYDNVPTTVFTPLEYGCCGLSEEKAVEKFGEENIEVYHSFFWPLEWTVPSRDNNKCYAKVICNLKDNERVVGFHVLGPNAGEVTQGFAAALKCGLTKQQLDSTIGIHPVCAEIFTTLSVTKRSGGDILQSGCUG
UniProt P39748, whole entry, looked up: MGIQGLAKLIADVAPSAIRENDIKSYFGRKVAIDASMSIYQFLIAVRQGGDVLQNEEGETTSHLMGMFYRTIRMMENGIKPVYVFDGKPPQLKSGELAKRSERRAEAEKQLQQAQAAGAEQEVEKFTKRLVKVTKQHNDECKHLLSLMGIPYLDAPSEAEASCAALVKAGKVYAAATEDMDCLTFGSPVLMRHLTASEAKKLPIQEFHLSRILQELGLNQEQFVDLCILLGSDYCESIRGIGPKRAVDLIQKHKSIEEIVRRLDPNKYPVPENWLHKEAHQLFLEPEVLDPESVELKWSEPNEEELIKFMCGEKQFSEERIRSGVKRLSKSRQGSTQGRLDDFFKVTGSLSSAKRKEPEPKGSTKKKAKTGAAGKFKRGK
UniProt Q99549: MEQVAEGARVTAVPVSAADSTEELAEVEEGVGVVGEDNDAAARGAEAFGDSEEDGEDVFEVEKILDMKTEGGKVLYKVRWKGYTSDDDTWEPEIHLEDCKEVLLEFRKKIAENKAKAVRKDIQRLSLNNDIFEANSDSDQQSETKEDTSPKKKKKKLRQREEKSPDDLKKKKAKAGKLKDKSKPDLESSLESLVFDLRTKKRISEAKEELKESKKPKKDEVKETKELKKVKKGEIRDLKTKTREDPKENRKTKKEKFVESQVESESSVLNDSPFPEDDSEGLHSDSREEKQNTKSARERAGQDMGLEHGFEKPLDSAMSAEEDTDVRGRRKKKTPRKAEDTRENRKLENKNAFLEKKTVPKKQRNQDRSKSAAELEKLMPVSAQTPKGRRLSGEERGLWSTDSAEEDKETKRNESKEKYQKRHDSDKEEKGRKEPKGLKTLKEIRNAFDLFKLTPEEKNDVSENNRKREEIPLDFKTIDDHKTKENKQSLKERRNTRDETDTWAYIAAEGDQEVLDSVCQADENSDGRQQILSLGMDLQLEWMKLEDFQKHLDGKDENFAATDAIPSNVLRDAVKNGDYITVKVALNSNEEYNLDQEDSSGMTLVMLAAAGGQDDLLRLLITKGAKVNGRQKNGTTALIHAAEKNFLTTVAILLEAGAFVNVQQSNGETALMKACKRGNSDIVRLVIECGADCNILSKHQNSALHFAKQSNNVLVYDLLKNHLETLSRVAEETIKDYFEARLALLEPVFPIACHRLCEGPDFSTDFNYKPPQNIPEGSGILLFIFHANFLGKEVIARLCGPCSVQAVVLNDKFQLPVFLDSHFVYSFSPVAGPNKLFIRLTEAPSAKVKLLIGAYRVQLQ
UniProt P83916, whole entry, looked up: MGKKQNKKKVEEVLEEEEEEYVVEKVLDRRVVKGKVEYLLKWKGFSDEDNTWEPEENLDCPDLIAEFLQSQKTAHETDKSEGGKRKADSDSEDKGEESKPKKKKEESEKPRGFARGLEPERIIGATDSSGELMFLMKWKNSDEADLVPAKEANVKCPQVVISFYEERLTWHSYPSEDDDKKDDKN
UniProt Q6LX38: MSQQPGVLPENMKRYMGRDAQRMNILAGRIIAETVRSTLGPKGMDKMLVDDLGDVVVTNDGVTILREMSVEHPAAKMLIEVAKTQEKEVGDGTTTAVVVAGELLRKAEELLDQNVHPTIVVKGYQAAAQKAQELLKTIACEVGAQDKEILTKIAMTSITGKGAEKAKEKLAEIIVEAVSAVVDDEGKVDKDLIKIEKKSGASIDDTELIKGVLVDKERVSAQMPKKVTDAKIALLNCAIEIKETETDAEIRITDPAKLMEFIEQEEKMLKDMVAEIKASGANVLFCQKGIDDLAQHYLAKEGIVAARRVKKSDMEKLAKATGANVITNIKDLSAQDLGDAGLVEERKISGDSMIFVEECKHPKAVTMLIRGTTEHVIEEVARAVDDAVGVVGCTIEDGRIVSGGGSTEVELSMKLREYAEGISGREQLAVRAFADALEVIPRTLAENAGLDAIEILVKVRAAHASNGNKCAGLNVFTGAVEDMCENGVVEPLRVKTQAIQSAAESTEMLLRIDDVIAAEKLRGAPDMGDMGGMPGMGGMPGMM
UniProt P21728, whole entry, looked up: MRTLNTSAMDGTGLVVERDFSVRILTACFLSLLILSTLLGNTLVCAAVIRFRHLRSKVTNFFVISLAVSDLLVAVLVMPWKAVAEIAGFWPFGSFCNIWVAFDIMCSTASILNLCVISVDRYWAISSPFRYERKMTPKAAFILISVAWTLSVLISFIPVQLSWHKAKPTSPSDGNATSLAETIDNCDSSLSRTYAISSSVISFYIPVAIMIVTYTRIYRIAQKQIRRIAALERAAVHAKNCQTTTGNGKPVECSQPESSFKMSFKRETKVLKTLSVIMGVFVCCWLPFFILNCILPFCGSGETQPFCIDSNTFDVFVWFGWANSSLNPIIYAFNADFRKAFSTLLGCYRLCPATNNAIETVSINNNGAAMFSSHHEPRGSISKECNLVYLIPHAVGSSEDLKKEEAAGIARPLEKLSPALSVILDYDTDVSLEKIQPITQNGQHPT
UniProt Q96QE3: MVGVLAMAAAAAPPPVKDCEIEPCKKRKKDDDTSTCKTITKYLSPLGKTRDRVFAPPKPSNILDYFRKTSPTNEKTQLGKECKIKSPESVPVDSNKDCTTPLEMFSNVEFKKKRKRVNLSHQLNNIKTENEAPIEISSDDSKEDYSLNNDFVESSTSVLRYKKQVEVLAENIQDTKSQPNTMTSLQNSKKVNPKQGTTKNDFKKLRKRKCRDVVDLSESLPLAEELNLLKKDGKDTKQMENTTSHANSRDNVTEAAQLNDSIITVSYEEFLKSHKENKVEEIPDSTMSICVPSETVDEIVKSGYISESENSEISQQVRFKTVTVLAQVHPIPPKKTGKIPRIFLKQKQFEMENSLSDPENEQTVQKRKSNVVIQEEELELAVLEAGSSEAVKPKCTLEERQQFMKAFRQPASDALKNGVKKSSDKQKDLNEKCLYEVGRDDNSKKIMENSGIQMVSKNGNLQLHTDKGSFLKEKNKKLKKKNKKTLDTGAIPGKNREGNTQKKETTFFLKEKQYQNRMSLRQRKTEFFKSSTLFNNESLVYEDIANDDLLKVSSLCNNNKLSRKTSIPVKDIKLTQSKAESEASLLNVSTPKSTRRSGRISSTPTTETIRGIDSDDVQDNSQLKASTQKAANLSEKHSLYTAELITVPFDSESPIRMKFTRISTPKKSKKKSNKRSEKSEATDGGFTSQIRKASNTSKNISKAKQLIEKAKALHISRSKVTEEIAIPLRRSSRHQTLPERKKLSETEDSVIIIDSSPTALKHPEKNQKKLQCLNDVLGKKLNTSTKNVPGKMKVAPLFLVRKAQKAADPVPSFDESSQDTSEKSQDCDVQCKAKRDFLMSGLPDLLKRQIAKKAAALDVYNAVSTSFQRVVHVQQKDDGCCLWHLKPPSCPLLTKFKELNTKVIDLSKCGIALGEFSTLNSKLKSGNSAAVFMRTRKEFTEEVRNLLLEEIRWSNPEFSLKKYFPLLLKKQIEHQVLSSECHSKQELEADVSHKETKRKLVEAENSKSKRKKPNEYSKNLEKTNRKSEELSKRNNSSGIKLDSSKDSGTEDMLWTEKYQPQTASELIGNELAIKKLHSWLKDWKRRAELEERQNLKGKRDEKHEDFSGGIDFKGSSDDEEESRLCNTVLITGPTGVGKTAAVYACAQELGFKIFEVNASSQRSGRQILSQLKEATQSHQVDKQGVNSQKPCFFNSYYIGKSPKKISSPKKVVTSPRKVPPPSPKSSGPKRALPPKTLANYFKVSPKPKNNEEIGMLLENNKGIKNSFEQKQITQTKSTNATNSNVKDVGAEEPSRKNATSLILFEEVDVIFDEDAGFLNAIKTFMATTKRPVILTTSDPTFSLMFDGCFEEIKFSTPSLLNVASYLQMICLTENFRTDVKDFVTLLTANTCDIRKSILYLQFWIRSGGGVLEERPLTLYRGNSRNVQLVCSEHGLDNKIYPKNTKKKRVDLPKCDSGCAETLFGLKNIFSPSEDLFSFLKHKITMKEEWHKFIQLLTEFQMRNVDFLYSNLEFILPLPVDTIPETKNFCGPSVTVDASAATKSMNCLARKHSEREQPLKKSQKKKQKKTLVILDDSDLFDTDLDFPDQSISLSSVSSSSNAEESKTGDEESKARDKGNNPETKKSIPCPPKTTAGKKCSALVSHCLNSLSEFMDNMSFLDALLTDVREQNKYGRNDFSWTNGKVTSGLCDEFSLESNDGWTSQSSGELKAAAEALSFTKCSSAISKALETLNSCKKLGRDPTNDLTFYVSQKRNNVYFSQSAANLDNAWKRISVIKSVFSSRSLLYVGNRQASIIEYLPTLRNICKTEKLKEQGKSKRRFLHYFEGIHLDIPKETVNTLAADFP
UniProt P34981: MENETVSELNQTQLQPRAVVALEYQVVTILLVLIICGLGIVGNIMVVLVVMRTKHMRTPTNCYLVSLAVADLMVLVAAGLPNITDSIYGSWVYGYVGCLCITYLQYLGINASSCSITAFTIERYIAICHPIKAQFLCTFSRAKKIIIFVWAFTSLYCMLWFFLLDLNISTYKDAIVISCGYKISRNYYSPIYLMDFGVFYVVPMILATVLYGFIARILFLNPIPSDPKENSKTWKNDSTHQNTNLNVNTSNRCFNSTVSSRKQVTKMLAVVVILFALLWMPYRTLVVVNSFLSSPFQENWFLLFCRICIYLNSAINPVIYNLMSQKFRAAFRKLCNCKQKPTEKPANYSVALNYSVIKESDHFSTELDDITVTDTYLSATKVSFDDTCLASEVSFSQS
UniProt P51570: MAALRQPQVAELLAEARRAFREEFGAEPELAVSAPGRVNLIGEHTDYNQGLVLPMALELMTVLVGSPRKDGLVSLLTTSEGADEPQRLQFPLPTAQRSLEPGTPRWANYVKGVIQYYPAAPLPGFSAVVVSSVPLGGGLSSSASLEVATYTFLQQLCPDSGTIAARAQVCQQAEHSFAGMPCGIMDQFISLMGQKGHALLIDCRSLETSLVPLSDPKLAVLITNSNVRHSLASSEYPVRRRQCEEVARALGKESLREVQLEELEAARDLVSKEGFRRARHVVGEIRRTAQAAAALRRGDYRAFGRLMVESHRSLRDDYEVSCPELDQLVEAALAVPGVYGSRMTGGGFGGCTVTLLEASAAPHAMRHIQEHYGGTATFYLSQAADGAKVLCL

What was measured:
[1] = target: Thioredoxin reductase 1, cytoplasmic (Rattus norvegicus) (UniProt O89049); test: qHTS Assay for Inhibitors of Mammalian Selenoprotein Thioredoxin Reductase 1 (TrxR1) (AID 488773); details: purified TrxR1 enzyme activity; at 57.1 µM (top of the series);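 also: drop in NADPH fluorescence over an 8 min run after selenite addition; % is scaled to controls: 0 for no effect and ±100 for the full control effect; nearly all actives have a fitted effect of over 40% in size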
Summary of the method: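 Steps: enzyme (90 nM) plus NADPH (400 uM final), 5 min at ~22 deg C; compound added, 15 min; selenite (400 uM final) added; fluorescence followed for 8 min. Concentration-response curves derived from the normalized delta values.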

[2] = target: Flap endonuclease 1 (Homo sapiens) (UniProt P39748); test: qHTS Validation Assay for the Inhibitors of Human Flap endonuclease 1 (FEN1) (AID 488816); details: FEN1 nuclease activity, fluorogenic DNA substrate; at 57.1 µM (top of the series); also: % is scaled to controls: 0 for no effect and ±100 for the full control effect
Summary of the method: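 Readings taken at 0 and 15 min after starting the reaction with 50 nM (final) substrate supplied the signal. Compounds had first sat with 10 nM FEN1 reagent for 15 min at room temperature. Values come from Hill-equation concentration-response fits.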

[3] = target: M-phase phosphoprotein 8 (Homo sapiens) (UniProt Q99549); test: qHTS Validation Assay for Inhibitors for MPP8 Chromodomain Interactions with Methylated Histone Tails (AID 488949); details: AlphaScreen MPP8 binding to H3K9me3 peptide;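 also: 50 nM MPP8 with 50 nM peptide preformed then compounds added for 30 min; AlphaScreen signal from MPP8 chromodomain bound to biotinylated H3K9me3 peptide; top concentration of the series differs between compounds; % is scaled to controls: 0 for no effect and ±100 for the full control effect; nearly all actives have a fitted effect of over 55% in size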
Summary of the method: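 50 nM MPP8 + 50 nM b-H3K9me3 peptide, PBS pH 7.4/0.01% Tween-20, 30 min RT; + cpd 30 min RT; + AlphaScreen donor/Ni-chelate acceptor beads 10 ug/mL final, 30 min dark; luminescence read.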

[4] = target: Chromobox protein homolog 1 (Homo sapiens) (UniProt P83916); test: qHTS Validation Assay for Inhibitors of HP1-beta Chromodomain Interactions with Methylated Histone Tails (AID 488953); details: HP1-beta chromodomain / methylated histone peptide binding assay; at 114 µM (top of the series);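 also: loss of AlphaScreen luminescence from HP1-beta binding biotinylated H3K9me3 peptide; % is scaled to controls: 0 for no effect and ±100 for the full control effect; nearly all actives have a fitted effect of over 50% in size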
[5] = target: Methanococcus maripaludis chaperonin (MmCpn) (UniProt Q6LX38); test: High-Throughput Screening for Modulators of Cytosolic Chaperonin Activity: MmCpn Primary Screen (AID 488978); details: MmCpn chaperonin refolding activity, biochemical qHTS; at 76.9 µM (top of the series);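 also: 50 nM MmCpn enzyme hydrolysing 30 µM ATP at 37 °C; 0% is about no effect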
Summary of the method: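 Steps: chaperonin 50 nM final; add compound, 5 min RT; start with ATP, 30 uM final; hold 10 min at 37C; add ADP Transcreener HTRF reagent, 5 min; read ex 320, em 590 and 665 nm.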

[6] = target: D(1A) dopamine receptor (Homo sapiens) (UniProt P21728); test: HTS Assay for Allosteric Agonists of the Human D1 Dopamine Receptor: Primary Screen for Agonists (AID 488981); details: D1 receptor-expressing cells, agonist cAMP readout; at 41.8 µM (top of the series); also: 0% is about no effect
Summary of the method: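 Calcium flux in an inducible, force-coupled HEK293 Trex D1 line (overnight at 30 C): agonist mode is the 180 s kinetic read after compound; potentiator mode is the following 180 s read after dopamine at EC20.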

[7] = target: D(1A) dopamine receptor (Homo sapiens) (UniProt P21728); test: HTS Assay for Allosteric Agonists of the Human D1 Dopamine Receptor: Primary Screen for Potentiators (AID 488982); details: D1 receptor cells, potentiator mode, cAMP signal; at 8.37 µM (top of the series); also: 0% is about no effect
[8] = target: D(1A) dopamine receptor (Homo sapiens) (UniProt P21728); test: HTS Assay for Allosteric Agonists of the Human D1 Dopamine Receptor: Primary Screen for Antagonists (AID 488983); details: D1 receptor cell assay, antagonist mode, qHTS titration; at 41.8 µM (top of the series);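 also: calcium flux response to an EC80 dopamine challenge measured with no-wash dye; % is scaled to controls: 0 for no effect and ±100 for the full control effect; nearly all actives have a fitted effect of over 65% in size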
[9] = Validation screen for small molecules that induce genotoxicity in human embryonic kidney (HEK293T) cells expressing luciferase-tagged ELG1 (AID 493106); details: luminescence; at 46.1 µM (top of the series); also: 0% is about no effect
Summary of the method: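 HEK293T cells expressing luciferase-tagged ELG1, 2,000 cells/well, exposed to compound 16 hr at 37 °C, 5% CO2. Luciferase read after ONE-Glo, 30 min at room temperature; increased signal indicates genetic stress.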

[10] = target: ATPase family AAA domain-containing protein 5 (Homo sapiens) (UniProt Q96QE3); test: Validation screen for small molecules that inhibit ELG1-dependent DNA repair in human embryonic kidney (HEK293T) cells expressing luciferase-tagged ELG1 (AID 493107); details: HEK293T ELG1-luciferase level, luminescence, 5-fluorouridine co-treatment, 16 h; at 46.1 µM (top of the series);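 also: cells co-treated with the DNA-damaging agent 5-fluorouridine alongside compound; % is scaled to controls: 0 for no effect and ±100 for the full control effect; inhibitors lower the ELG1-luciferase luminescence signal; nearly all actives have a fitted effect of over 70% in size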
Summary of the method: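 HEK293T cells expressing luciferase-tagged ELG1, 2,000 per well, treated with 5-fluorouridine plus compound for 16 h at 37 C. ONE-Glo luminescence after 30 min at room temperature reports ELG1 reporter level.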

[11] = target: Thyrotropin-releasing hormone receptor (Homo sapiens) (UniProt P34981); test: qHTS for Small Molecule Agonists and Allosteric Enhancers of Human TRH Receptor: Validation Screen for Agonists (AID 493127;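 active = calcium activation more than 3 SD above the typical response in the agonist read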; also: 0% is about no effect); details: TRH receptor agonist cell assay; at 2 µM; stronger effect = higher value
Summary of the method: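 TRHR cells loaded with fluo-8 calcium dye; FDSS kinetic fluorescence (Ex 480/Em 530) read at 1 s/cycle after 23 nL compound addition. Agonist-mode calcium response recorded before the 10 nM TRH (EC20) addition.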

[12] = Nrf2 qHTS screen for inhibitors: Validation (AID 493153; active = well fitted inhibition curve with a large enough effect in the main read-out, with a control signal flat, not every such curve was filed as active;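 also: A549 cells with ARE-driven firefly luciferase reporter reporting Nrf2 activity; % of control where 0% means no effect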); details: A549 ARE-Fluc reporter, luciferase luminescence, 18-24 h; at 46.1 µM (top of the series)
[13] = qHTS for Inhibitors of Cell Surface uPA Generation: Validation Assay (AID 493164); details: mouse cells, plasminogen activation; at 38.3 µM (top of the series); also: 0% is about no effect
Summary of the method: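 RAW 264.7 cells (4000/well) were plated overnight, then exposed for 18 h at 37 C, 5% CO2 to compounds in a 7-point 1:5 titration (2.45 nM–38.3 uM final). Intracellular ATP was read by ATP-Lite luminescence.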

[14] = target: Galactokinase (Homo sapiens) (UniProt P51570); test: qHTS Validation Assay for Inhibitors of Human Galactokinase (GALK) (AID 493189); details: purified human GALK enzyme activity, qHTS 7-point titration; at 57.5 µM (top of the series); also: 0% is about no effect
Summary of the method: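 5 nM GALK / 100 uM galactose / 35 uM ATP, 20 mM HEPES pH8.0, 5 mM MgCl2, 60 mM NaCl, 1 mM DTT, 0.01% BSA (final). RT 1 h; Kinase-Glo Plus luminescence.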

CN(C(=O)Cc1ccc(Cl)c(Cl)c1)[C@H]1CCCC[C@@H]1N1CCCC1
inactive: activity change, negative = inhibition [1] 1.69% and -3.64% | activity, negative = inhibition [2] -1.75% and -2.1% | activity change, negative = inhibition ([3]; at 57.1 µM (top of the series)) -4.38% and 7.58% | activity change, negative = inhibition ([3]; at 114 µM (top of the series)) -5.17% and -1.58% | activity change, negative = inhibition [4] -9.17% and 16.8% | activity change, negative = inhibition [5] -1.04% and 0.109% | activation [6] 7.14% and 5.24% | activity, positive = potentiation [7] -29.8% and -3.67% | activity change, negative = inhibition [8] 3.5% and 6.77% | activity change, positive = ELG1 induction [9] -8.16% and -8.1% | activity change, negative = decrease [10] -2.19% and 1.6% | activation [11] 1% and 0.188% | activity change, negative = inhibition [12] 10.6% and 6.3% | activity change [13] 0.234% and -0.512% | activity change, negative = inhibition [14] 3.27%
